GALK inhibitor: galactokinase (human) inhibition. Potency, µM (top dose mostly 57.5 µM), hits mostly inhibitors. Purified GALK, Kinase-Glo residual ATP luminescence. P51570. 0.007% of 270,000 active. AID 1868
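5 nM enzyme, 35 uM ATP, 100 uM galactose, 20 mM HEPES pH8.0, 5 mM MgCl2; 1 h RT; residual ATP by Kinase-Glo Plus luminescence, qHTS format.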
A549 tox: kills or reduces viability of A549 cells in Nrf2 counter-screen; Potency, µM (series often up to 46 µM), hits mostly inhibitors; A549 ARE-Fluc cells, CellTiter-Fluor viability, 18-24 h; 0.16% of 390,000 active; AID 504648
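A549 ARE_Fluc cells in 5% FBS OPTI-MEM were exposed to compounds in concentration-response for 18-24 h at 37 deg C. Viability was read by CellTiter-Fluor fluorescence (Ex 405/Em 525) after 30 min, before the luciferase read.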
PI4K2A inh: blocks human PI4K2A kinase activity; Q9BTU6; 0.13% of 420,000 active; purified PI4K2A, ADP-Glo luminescence, 1 h; stronger effect = lower value; activity change, negative = inhibition, % at 76.9 µM; in the data active = activity change below about -50%; inconclusive = mostly about -30% to -49%
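ADP-Glo luminescence measured ADP generated by PI4K2A enzyme (4 ug/mL before mixing) with 1.2 mM PI substrate (pre-mix) and 300 microM ATP (pre-mix). Tris pH7.5 buffer with MgCl2, Triton X-100; 1 h reaction at ambient temperature.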
Nrf2 ARE act: Nrf2 pathway activation. 0.31% of 410,000 active. Potency, µM (highest dose often 46.1 µM), usual class: activators. AREc32 ARE-luciferase reporter (MCF7-derived line), luminescence, 24 h; note: nearly all actives have a fitted effect of over 65% in size
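Each well held 1000 AREc32 cells, which were incubated with compound for 24 hr at 37 deg C after overnight attachment, and ARE reporter activity was quantified by firefly luciferase luminescence.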
miR-21 reporter: miR-21 reporter, rising signal. HeLa miR-21 FLuc reporter, luciferase, 48 h. Potency, µM (titrated, usually from 38.3 µM). 340,000 tested, under 10 active. AID 2288; active = well fitted rising curve with a large enough effect; inconclusive = small, poorly fitted or top-dose-only effect; inactive = no such curve, though single readings can be large or run the other way;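 also: miR-21 action dims this reporter so a rising signal means less miR-21 action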
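Luminescence from a firefly luciferase reporter carrying a miR-21 binding site downstream, stably expressed under a CMV promoter in HeLa cells that make miR-21 endogenously, reports miRNA modulation after 48 h compound exposure up to approximately 40uM final.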
Nrf2 block: Nrf2 pathway inhibition; A549 ARE-Fluc reporter, luciferase luminescence, 18-24 h; Potency, µM (doses to about 46 µM), hits mostly inhibitors; 2.1% of 360,000 active; note: nearly all actives have a fitted effect of over 60% in size
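Two sequential reads on A549 ARE_Fluc cells exposed to compound for 18-24 h: a CellTiter-Fluor fluorescence read for viability, then a luciferase luminescence read for Nrf2/ARE activity.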
Each line names hits and unclear results; the compound was inactive in the other large screens. Compounds with a hit are over-represented: about 2.2% of the library has one in this group of screens. Unless noted, calls come from the whole dose curve; as a rule, active = well fitted curve in the direction sought with a large enough effect; inconclusive = small, poorly fitted or top-dose-only effect, or another doubt; inactive = no such curve, though single readings can be large; an effect the other way counts as inactive or inconclusive.

O=C(C1CCN(c2ncnc3c2sc2cccc(F)c23)CC1)N1CCN(C(=O)C2CCCO2)CC1 (stereo unspecified)	none (no result: GALK inhibitor, A549 tox, Nrf2 ARE act, miR-21 reporter, Nrf2 block)
CCc1ccc(S(=O)(=O)Nc2ccc3c(c2)sc(=O)n3C)cc1	none (no result: GALK inhibitor, Nrf2 block)
CCn1c(=O)sc2cc(NS(=O)(=O)c3ccc(C)cc3)ccc21	Nrf2 block 18.4µM (no result: GALK inhibitor)
COc1ccc(S[C@]2(C(=O)N3CCN(c4ncccn4)CC3)CC(=O)N(c3ccccc3)[C@@H]2c2ccc(OC)cc2)cc1	none (no result: GALK inhibitor, A549 tox, Nrf2 ARE act, miR-21 reporter, Nrf2 block)
Cc1ccccc1CNc1ncnc2c1ncn2C1OC(CO)C(O)C1O (stereo unspecified)	none (no result: GALK inhibitor, A549 tox, Nrf2 ARE act, miR-21 reporter, Nrf2 block)
OC[C@H]1O[C@@H](n2cnc3c(NCc4ccco4)ncnc32)[C@H](O)[C@@H]1O	A549 tox inconclusive, Nrf2 ARE act inconclusive, Nrf2 block 8.2µM (no result: GALK inhibitor, miR-21 reporter)
N#Cc1c(NC(=O)c2cc(-n3cnnc3)ccc2Cl)sc2c1CCCC2	Nrf2 block 23.1µM
Cc1c(/C=N/NC(=O)c2ccccc2O)c2ccccn2c1C(=O)c1ccc(F)cc1	A549 tox 18.4µM, Nrf2 block 20.6µM
Cc1c(/C=N/NC(=O)c2ccc(O)cc2)c2ccccn2c1C(=O)c1ccc(F)cc1	A549 tox inconclusive, Nrf2 block inconclusive
COC(=O)[C@]12C[C@H](CC(=O)NCc3ccc(OC)c(OC)c3)C(=O)N(Cc3ccc(Cl)cc3Cl)C1=C[C@H](C(C)(C)C)O[C@@H]2C	none (no result: GALK inhibitor, A549 tox, Nrf2 ARE act, miR-21 reporter, Nrf2 block)
Cc1cc(=O)oc2cc(OCc3ccc(C(=O)N4CCN(c5ccccc5)CC4)cc3)ccc12	Nrf2 block 18.4µM
CNC(=S)N(CCc1c(C)[nH]c2ccc(OC)cc12)Cc1cc(OC)c(OC)c(OC)c1	none (no result: GALK inhibitor)
CNC(=S)N(CCc1c(C)[nH]c2ccc(C)cc12)Cc1cc(OC)c(OC)c(OC)c1	A549 tox inconclusive, Nrf2 block 23.1µM (no result: GALK inhibitor)
O=C(N/N=C/c1cccc(Oc2ccc([N+](=O)[O-])cc2[N+](=O)[O-])c1)c1cncc(Br)c1	A549 tox inconclusive, Nrf2 ARE act inconclusive, Nrf2 block 13µM
Cc1ccccc1OCC(=O)N/N=C/c1cccc(Oc2ccc([N+](=O)[O-])cc2[N+](=O)[O-])c1	Nrf2 ARE act inconclusive, Nrf2 block inconclusive
O=[N+]([O-])c1ccc(NCCCN2CCC(C(O)(c3ccccc3)c3ccccc3)CC2)cc1	none (no result: GALK inhibitor, A549 tox, Nrf2 ARE act, miR-21 reporter, Nrf2 block)
N#CCCn1cc(/C=C2\NC(=S)N(c3ccccc3)C2=O)c(-c2ccc(-c3ccccc3)cc2)n1	A549 tox 20.6µM, Nrf2 block 18.4µM
COc1ccc(C2Nc3ccccc3C(=O)N2Cc2ccccc2)cc1COc1ccc(Cl)cc1 (stereo unspecified)	none (no result: GALK inhibitor, PI4K2A inh, Nrf2 ARE act, miR-21 reporter)
O=S1(=O)N=C(OCc2ccccc2)c2ccccc21	Nrf2 block inconclusive (no result: GALK inhibitor, PI4K2A inh, Nrf2 ARE act, miR-21 reporter)
COc1ccc(NC(=O)c2cc3c(C)nn(-c4ccccc4)c3s2)cc1	none (no result: GALK inhibitor, A549 tox, Nrf2 ARE act, miR-21 reporter, Nrf2 block)
O=C(COC(=O)/C=C/c1ccccc1[N+](=O)[O-])Nc1ccc2[nH]c(=O)[nH]c2c1	Nrf2 ARE act 11.2µM (no result: GALK inhibitor, miR-21 reporter)
COC(=O)c1sccc1NC(=O)Nc1ccc(OC)cc1	PI4K2A inh -57.4
COC(=O)c1ccccc1NC(=O)c1ccco1	none (no result: Nrf2 block)
COC(=O)c1sccc1NC(=O)c1ccco1	Nrf2 ARE act 11.2µM
Cc1ccc(NC(=O)c2ccco2)c([N+](=O)[O-])c1	Nrf2 ARE act 11.2µM
COC(=O)c1sccc1NC(=O)c1ccccc1[N+](=O)[O-]	Nrf2 ARE act 11.2µM
O=C(NC1CCCCN(Cc2cccc(Cl)c2)C1=O)c1ccccn1 (stereo unspecified)	none (no result: GALK inhibitor, A549 tox, Nrf2 ARE act, miR-21 reporter, Nrf2 block)
COC(=O)c1sccc1NC(=O)c1cccc(F)c1	Nrf2 ARE act 10µM (no result: GALK inhibitor, miR-21 reporter)
CCC(C)(C)NC(=O)C(c1ccc(OC)cc1)N(C(=O)CCC(=O)Nc1cc(C)on1)c1cccc(F)c1 (stereo unspecified)	A549 tox inconclusive, Nrf2 block 5.8µM
CCOc1ccc(C(=O)Nc2nc3ccccc3[nH]2)cc1OCC	Nrf2 block 10.3µM
CC(C)Oc1ccc(C(=O)Nc2nc3ccccc3[nH]2)cc1	PI4K2A inh -56.0, Nrf2 block inconclusive
O=C(Nc1nc2ccccc2[nH]1)c1ccc(F)cc1	Nrf2 block inconclusive

Screening results as filed in PubChem.
